Earlier results on 1 molecule are cited in PMC3809117 (AIDS (London, England), 2009).

Structures are written as SMILES.

For this series, the system named is HDACs. Particulars: HDAC isoforms inhibited; cited from earlier work.

Consider `CCCC(CCC)C(=O)O` [VPA, valproic acid], for which the Selectivity entry is reported as “Nonselective”.
